Laboratory results published in US20240376143A1, “SELECTION INHIBITION OF DNA POLYMERASE BETA BY A COVALENT INHIBITOR” (The Johns Hopkins University, priority 2021, published 2024).

Experiments:
[1] = system: HeLa cells; settings: bleomycin 2 μM alone
[2] = target: DNA polymerase β (Pol β) (Homo sapiens, UniProt P06746); settings: 20 min preincubation, 15 μM

| Compound | cytotoxicity [1] | Pol β strand displacement activity [2] |
| --- | --- | --- |
| bleomycin | 22% | – |
| Cc1cn([C@H]2CC(NC(=O)c3cc(-c4ccc(Cl)cc4)oc3C(F)(F)F)[C@@H](COP(=O)(O)OCC3CC(O)OC3O)O2)c(=O)[nH]c1=O (some centres unmarked) [Compound 7] | – | Complete loss |
